# Binding of CDR-mutated scFvs to a peptide of the spike HR2 region

Antigen: PDVDLGDISGINAS, a 14-residue peptide of the SARS-CoV-2 spike HR2 region.

Each scFv is VH, three GGGGS repeats, VL, as in the parent Ab-95, and differs from it in the CDRs of the light chain only.
VH: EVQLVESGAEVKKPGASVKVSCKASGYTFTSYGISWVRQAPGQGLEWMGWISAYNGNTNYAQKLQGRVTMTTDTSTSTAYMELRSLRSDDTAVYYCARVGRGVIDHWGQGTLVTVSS
VL: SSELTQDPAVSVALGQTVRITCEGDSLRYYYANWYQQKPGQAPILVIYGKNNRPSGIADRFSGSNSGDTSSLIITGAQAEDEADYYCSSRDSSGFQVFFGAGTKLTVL

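The parent was found by panning a naive human phage display library on the peptide. Library AAYL52 holds single substitutions and randomly drawn double and triple substitutions in the CDRs. The scFvs were displayed on barcoded MATa yeast, the peptide on MATalpha yeast. After mating in shaken culture at 30 °C for 16 h, diploids were selected and their barcode pairs sequenced. A regression on co-assayed BCL2-family reference pairs converts the normalised counts of each replicate to an apparent Kd. The assay was run in three technical replicates.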

Positions count from residue 1 of the parent VL; E23K puts K in place of E. All variants listed here change D91 of the VL, counted from its first residue. Each Kd is an estimate from the mating assay, the geometric mean of the replicates in which the pair was seen; lower is stronger. A pair that was not seen in any replicate is written "no signal"; this usually means weak binding, but a binder can also be missed. The list is sorted by this average, lowest first, undetected variants last. Empty control strains, which show no peptide, gave a signal in 28% of pairings with library AAYL52; the median was 8.2 µM and 95% of these signals were weaker than 800 nM. No background was subtracted. For each scFv, signals with the empty controls are counted beside the result. Parent in this assay: reference entry 200 nM, copy in this library 180 nM.

| changes | Kd | replicates with signal | signal with controls |
|---|---|---|---|
| E23K+Y31G+D91V | 44 nM | 3 of 3 | 0 of 9 |
| P54E+D91T+Q96D | 64 nM | 3 of 3 | 2 of 9 |
| E23H+R90E+D91Q | 190 nM | 3 of 3 | 0 of 9 |
| K50C+D91C+Q96F | 190 nM | 1 of 3 | 2 of 9 |
| Y31E+P54I+D91G | 220 nM | 3 of 3 | 1 of 9 |
| Y29F+S55E+D91W | 240 nM | 3 of 3 | 1 of 9 |
| K50Q+S89Q+D91K | 250 nM | 3 of 3 | 2 of 9 |
| E23M+R90N+D91V | 280 nM | 3 of 3 | 2 of 9 |
| D91F+S93K+V97S | 340 nM | 2 of 3 | 1 of 9 |
| N33D+S89N+D91T | 490 nM | 1 of 3 | 3 of 9 |
| N52A+S89M+D91V | 630 nM | 3 of 3 | 4 of 9 |
| D91E+S92N+F95L | 720 nM | 3 of 3 | 1 of 9 |
| N51A+R90W+D91F | 750 nM | 1 of 3 | 4 of 9 |
| D91Y+S93Q+Q96W | 1.1 µM | 1 of 3 | 0 of 9 |
| Y31C+D91F | 1.1 µM | 3 of 3 | 4 of 9 |
| R28M+D91P+S93H | 1.2 µM | 3 of 3 | 5 of 9 |
| Y29V+D91A+G94A | 1.3 µM | 1 of 3 | 1 of 9 |
| D25F+D91S+F98C | 1.9 µM | 3 of 3 | 4 of 9 |
| L27C+Y29K+D91N | 1.9 µM | 2 of 3 | 0 of 9 |
| S88Q+D91T+V97Y | 2.7 µM | 1 of 3 | 0 of 9 |
| S55I+D91Q+S92L | 2.8 µM | 3 of 3 | 2 of 9 |
| S26A+Y29V+D91C | 3.1 µM | 3 of 3 | 1 of 9 |
| G24V+S26L+D91G | 3.4 µM | 3 of 3 | 3 of 9 |
| E23A+S55C+D91Y | 3.7 µM | 3 of 3 | 1 of 9 |
| K50Y+D91Y+Q96D | 3.8 µM | 1 of 3 | 2 of 9 |
| E23G+D91W | 3.9 µM | 3 of 3 | 5 of 9 |
| A32L+D91S | 4.5 µM | 2 of 3 | 6 of 9 |
| D91E+G94Y+V97D | 4.5 µM | 2 of 3 | 2 of 9 |
| P54T+D91G+S93D | 4.5 µM | 3 of 3 | 3 of 9 |
| P54G+D91G | 4.9 µM | 3 of 3 | 1 of 9 |
| G49P+R53I+D91C | 4.9 µM | 3 of 3 | 3 of 9 |
| Y30C+R90Q+D91P | 5.8 µM | 2 of 3 | 4 of 9 |
| L27C+P54L+D91W | 6.3 µM | 2 of 3 | 4 of 9 |
| N33S+D91F+Q96H | 6.5 µM | 3 of 3 | 1 of 9 |
| E23F+A32F+D91M | 7.4 µM | 3 of 3 | 6 of 9 |
| A32M+S55R+D91Y | 7.5 µM | 2 of 3 | 2 of 9 |
| D25M+S26F+D91C | 7.9 µM | 2 of 3 | 2 of 9 |
| N33V+R53C+D91F | 8.7 µM | 1 of 3 | 0 of 9 |
| Y31M+R90F+D91N | 8.8 µM | 1 of 3 | 1 of 9 |
| D25R+Y29I+D91E | 14 µM | 3 of 3 | 5 of 9 |
| N33M+N51Y+D91I | 14 µM | 2 of 3 | 3 of 9 |
| N33T+D91N+S93V | 21 µM | 2 of 3 | 5 of 9 |
| A32F+D91S+V97I | 26 µM | 1 of 3 | 0 of 9 |
| E23H+S88L+D91V | 32 µM | 2 of 3 | 1 of 9 |
| G49A+R90W+D91F | 41 µM | 1 of 3 | 3 of 9 |
| G49E+R90N+D91T | 44 µM | 2 of 3 | 2 of 9 |
| L27S+A32V+D91H | 47 µM | 1 of 3 | 3 of 9 |
| R28K+D91A+G94L | 50 µM | 2 of 3 | 0 of 9 |
| D91V+Q96N | 57 µM | 1 of 3 | 1 of 9 |
| N33C+D91A+V97S | 59 µM | 2 of 3 | 5 of 9 |
| Y31E+R53D+D91Y | 130 µM | 2 of 3 | 2 of 9 |
| Y29V+A32Y+D91Y | no signal | 0 of 3 | 3 of 9 |
| N51H+S55V+D91R | no signal | 0 of 3 | 2 of 9 |
| L27V+S55A+D91L | no signal | 0 of 3 | 0 of 9 |
| N33E+P54D+D91K | no signal | 0 of 3 | 0 of 9 |
| D25C+P54T+D91R | no signal | 0 of 3 | 2 of 9 |
| L27Y+D91I+F95Y | no signal | 0 of 3 | 1 of 9 |
| R90H+D91K+V97N | no signal | 0 of 3 | 0 of 9 |
| P54E+D91E+S92R | no signal | 0 of 3 | 2 of 9 |
| G24I+D91T+S93C | no signal | 0 of 3 | 3 of 9 |
| G49E+S89P+D91G | no signal | 0 of 3 | 0 of 9 |
| Y30L+D91F+Q96F | no signal | 0 of 3 | 2 of 9 |

Excerpt, the final 4 entries:

| changes | Kd | replicates with signal | signal with controls |
|---|---|---|---|
| P54E+D91E+S92R | no signal | 0 of 3 | 2 of 9 |
| G24I+D91T+S93C | no signal | 0 of 3 | 3 of 9 |
| G49E+S89P+D91G | no signal | 0 of 3 | 0 of 9 |
| Y30L+D91F+Q96F | no signal | 0 of 3 | 2 of 9 |

Values reported by Engelhart et al. 2022, doi:10.1038/s41597-022-01779-4 (FLAb copy).